Results as given in US7119095B2, “Pharmaceutically active compounds and methods of use thereof” (Dana Farber Cancer Institute, priority 2001, dated 2006).

Target: T1, rat liver DHFR (Rattus norvegicus, UniProt Q920D2)
T1 sequence (Q920D2 1-187): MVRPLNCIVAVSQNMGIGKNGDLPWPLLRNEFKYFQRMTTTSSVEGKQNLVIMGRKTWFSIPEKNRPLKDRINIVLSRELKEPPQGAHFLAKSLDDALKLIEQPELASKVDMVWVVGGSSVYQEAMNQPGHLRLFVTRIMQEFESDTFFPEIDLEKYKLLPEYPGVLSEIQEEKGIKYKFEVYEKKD
Assay: Inhibition of rat liver DHFR (literature assay)

`COc1ccc(OCCCCC(=O)O)cc1Cc1cnc(N)nc1N` [Compound 3g] showed an IC50 of 5.4 µM.
